Source: ChEMBL document CHEMBL1153475, “Novel indoline-based acyl-CoA: cholesterol acyltransferase inhibitor: Effects of introducing a methanesulfonamide group on physicochemical properties and biological activities” (Bioorg Med Chem, 2009)

Biological target: T1, Acyl-CoA:cholesterol acyltransferase (Oryctolagus cuniculus, UniProt Q95214)
T1 sequence (Q95214 whole entry): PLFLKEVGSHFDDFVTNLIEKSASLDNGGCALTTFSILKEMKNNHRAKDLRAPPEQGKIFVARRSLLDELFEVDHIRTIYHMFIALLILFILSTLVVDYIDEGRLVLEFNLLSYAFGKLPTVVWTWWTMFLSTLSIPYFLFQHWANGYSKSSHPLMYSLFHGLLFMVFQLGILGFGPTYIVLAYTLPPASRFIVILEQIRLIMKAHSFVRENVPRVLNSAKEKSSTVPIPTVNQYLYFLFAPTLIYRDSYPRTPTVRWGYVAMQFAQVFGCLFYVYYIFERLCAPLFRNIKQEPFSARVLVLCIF
Experiment: Inhibition of ACAT in Japanese White rabbit liver microsomes
Set-up: species or system Microsome

IC50: 24 nM
SMILES: CCCCCCCCN1CCc2c(C)cc(C)c(NC(=O)C(C)(C)C)c21
